Experimental data taken from publication PMC2726290, “Decoding of Methylated Histone H3 Tail by the Pygo-BCL9 Wnt Signaling Complex” (Molecular Cell, 2008).

By UniProt entry, the sequences of proteins in these tests, tags left out. Where a name states a change or a piece, a line headed by the entry shows the natural chain unless it says otherwise.
UniProt O00512: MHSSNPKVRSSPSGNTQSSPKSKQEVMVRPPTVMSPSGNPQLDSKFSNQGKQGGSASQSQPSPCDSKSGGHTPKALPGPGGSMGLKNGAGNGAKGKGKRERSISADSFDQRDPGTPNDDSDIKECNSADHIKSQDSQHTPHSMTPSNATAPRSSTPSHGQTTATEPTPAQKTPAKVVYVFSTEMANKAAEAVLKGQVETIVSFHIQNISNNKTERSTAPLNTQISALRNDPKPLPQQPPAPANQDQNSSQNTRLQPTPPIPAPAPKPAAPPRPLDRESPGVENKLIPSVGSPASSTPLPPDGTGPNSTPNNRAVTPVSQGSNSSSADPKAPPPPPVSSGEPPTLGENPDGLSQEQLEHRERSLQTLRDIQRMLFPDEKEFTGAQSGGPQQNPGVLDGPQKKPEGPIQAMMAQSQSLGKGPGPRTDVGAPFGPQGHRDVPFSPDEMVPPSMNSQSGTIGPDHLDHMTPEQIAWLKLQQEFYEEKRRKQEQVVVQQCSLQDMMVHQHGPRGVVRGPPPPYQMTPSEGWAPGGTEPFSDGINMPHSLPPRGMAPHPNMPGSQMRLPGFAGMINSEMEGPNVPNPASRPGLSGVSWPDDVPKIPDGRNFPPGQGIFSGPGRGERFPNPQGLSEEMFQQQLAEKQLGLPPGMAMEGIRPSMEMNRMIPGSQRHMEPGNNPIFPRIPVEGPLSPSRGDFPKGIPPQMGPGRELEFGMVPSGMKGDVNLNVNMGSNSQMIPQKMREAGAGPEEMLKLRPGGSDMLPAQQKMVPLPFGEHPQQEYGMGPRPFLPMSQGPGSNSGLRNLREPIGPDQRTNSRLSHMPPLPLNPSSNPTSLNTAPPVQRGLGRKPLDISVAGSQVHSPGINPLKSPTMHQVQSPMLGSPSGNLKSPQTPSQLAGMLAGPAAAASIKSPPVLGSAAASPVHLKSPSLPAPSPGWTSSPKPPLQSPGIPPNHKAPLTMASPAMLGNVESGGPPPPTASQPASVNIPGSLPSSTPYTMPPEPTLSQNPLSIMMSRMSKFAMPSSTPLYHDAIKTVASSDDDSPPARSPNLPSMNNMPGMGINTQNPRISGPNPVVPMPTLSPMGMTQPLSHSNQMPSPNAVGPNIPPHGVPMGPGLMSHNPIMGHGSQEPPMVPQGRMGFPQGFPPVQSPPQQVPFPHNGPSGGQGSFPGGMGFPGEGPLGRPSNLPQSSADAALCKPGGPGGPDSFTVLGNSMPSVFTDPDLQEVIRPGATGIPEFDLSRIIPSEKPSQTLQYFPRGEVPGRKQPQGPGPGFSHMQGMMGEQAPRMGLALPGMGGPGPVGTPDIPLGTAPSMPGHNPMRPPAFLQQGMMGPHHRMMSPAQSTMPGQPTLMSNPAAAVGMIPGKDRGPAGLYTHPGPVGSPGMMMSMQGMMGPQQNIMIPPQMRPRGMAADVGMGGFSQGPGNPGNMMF

Columns and labels:
Type in all cases: binding
[1] = target: T1, PHD finger from hPygo1 (hPHD) (Homo sapiens, UniProt Q9Y3Y4); assay: ITC, histone tail peptides with free hPHD; conditions: 15-mer peptides, ITC at 25 °C, pH 8.0
T1 construct: hPygo1 PHD (amino acids 333–402); GST (N, cleaved yes); made in house; host or cells: E. coli BL21-CodonPlus(DE3)-RIL
T1 sequence (Q9Y3Y4 333-402): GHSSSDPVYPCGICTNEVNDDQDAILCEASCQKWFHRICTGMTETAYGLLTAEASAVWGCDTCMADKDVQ
Description: Free PHD fingers were purified similarly to the PHD-HD1 complexes, and purity was assessed by SDS-PAGE prior to use for ITC.
(§1) ITC was carried out using a VP-ITC Microcal calorimeter (Microcal, Northhampton, MA, USA). Peptides were lyophilized against freshly prepared 20mM ammonium bicarbonate solution and resuspended in the ITC dialysis buffer (25mM Tris pH 8.0, 100mM NaCl and 2mM β-mercaptoethanol). Experiments were performed at 25 °C. During titration, 4-12µl aliquots of 0.5-1.0mM peptide solution was injected into a solution of 50µM protein at time intervals of 5 min. ITC data were corrected for the heat of dilution and analyzed using Origin (version 5.0) provided by the manufacturer. […]

[2] = target: T2, hPHD-HD1 complex (hPygo1 PHD with hBCL9 HD1) (Homo sapiens, UniProt O00512+Q9Y3Y4); assay: ITC, histone tail peptides with human PHD-HD1 complex; conditions: ITC at 25 °C, pH 8.0
T2 construct: hPygo1 PHD (amino acids 333–402); GST (N, cleaved yes); made in house; host or cells: E. coli BL21-CodonPlus(DE3)-RIL
T2 sequence (Q9Y3Y4 333-402): T1 sequence (Q9Y3Y4 333-402)
T2 sequence (O00512 177-205 partner limits assumed): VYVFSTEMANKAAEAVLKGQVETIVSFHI
Description: as §1

[3] = target: T3, dPHD-HD1 complex (Drosophila Pygo PHD with Lgs HD1) (Drosophila melanogaster, UniProt Q961D9+Q9V9W8); assay: ITC, histone tail peptides with Drosophila PHD-HD1 complex; conditions: ITC at 25 °C, pH 8.0
T3 construct: Drosophila Pygo PHD (amino acids 747–808); GST (N, cleaved yes); made in house; host or cells: E. coli BL21-CodonPlus(DE3)-RIL
T3 sequence (Q9V9W8 747-808): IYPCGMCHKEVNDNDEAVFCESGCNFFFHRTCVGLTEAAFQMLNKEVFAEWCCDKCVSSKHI
T3 sequence (Q961D9 316-350 partner limits assumed): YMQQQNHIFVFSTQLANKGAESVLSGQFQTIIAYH
Description: as §1

binding (in words) [1]: essentially undetectable
Substance: 15-mer H3K4me0: unmodified 15-mer histone H3 tail peptide
binding (in words) [2]: Neither complex showed detectable binding | binding (in words) [3]: Neither complex showed detectable binding
